Consider one compound from ChEMBL document CHEMBL4020849, “4,6-Diaminopyrimidines as Highly Preferred Troponin I-Interacting Kinase (TNNI3K) Inhibitors” (J Med Chem, 2018).

This assay concerns the target T1, Serine/threonine-protein kinase TNNI3K (Homo sapiens, UniProt Q59H18).
T1 sequence (Q59H18 whole entry): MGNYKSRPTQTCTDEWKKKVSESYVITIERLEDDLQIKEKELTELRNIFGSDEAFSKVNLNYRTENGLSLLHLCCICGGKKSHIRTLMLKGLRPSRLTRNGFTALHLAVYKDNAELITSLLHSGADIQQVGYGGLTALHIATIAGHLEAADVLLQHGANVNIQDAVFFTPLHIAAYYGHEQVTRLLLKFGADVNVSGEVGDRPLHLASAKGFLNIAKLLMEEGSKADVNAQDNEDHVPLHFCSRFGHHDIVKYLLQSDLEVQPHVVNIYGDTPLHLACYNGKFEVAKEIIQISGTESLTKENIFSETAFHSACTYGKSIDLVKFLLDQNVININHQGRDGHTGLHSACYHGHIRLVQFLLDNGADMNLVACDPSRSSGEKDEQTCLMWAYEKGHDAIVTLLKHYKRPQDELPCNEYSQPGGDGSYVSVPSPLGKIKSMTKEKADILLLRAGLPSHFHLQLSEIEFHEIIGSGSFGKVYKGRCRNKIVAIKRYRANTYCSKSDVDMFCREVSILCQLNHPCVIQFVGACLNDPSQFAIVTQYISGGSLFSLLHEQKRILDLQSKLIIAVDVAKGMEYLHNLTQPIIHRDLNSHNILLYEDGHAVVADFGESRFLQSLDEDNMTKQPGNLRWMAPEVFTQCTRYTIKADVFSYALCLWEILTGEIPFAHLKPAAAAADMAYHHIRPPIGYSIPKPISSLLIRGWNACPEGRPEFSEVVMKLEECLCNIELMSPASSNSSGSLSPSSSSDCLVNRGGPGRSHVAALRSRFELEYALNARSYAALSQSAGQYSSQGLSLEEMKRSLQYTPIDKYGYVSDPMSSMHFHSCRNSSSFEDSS
Nature of the assay: Inhibition of 5-({[2-({[3-({4-[(5-hydroxy-2-methylphenyl)amino]-2-pyrimidinyl}amino)phenyl]carbonyl}amino)-ethyl]amino}carbonyl)-2-(6-hydroxy-3-oxo-3H-xanthen-9-yl)benzoic acid binding to human full length His/MBP-fused TNNI3K expressed in baculovirus expression system after 60 mins by fluorescence polarization assay. On the technique in general: In fluorescence polarisation assays a small probe gives low polarisation when free and higher when bound to something large.

As usually defined, the IC50 is the concentration that inhibits the measured activity by half. A high value points to a need for much substance. In turn, `CNS(=O)(=O)c1cccc(Nc2cc(Nc3cccc(C(C)(C)C)c3)ncn2)c1` gave an IC50 of 400 nM.
